Patent US8795979B2, “Hydrolase enzyme substrates and uses thereof” (General Atomics, priority 2011, dated 2014)

System: aryl alcohol oxidase (AAO)
Assay: Kinetic constants of AAO
Assay type: biochemical
Settings: AAO purified from Pleurotus eryngii

## COc1ccc(CO)cc1 [p-anisyl-OH]
  Kp-anisyl-OH (AAO): 37 ± 8 µM
